Experimental data from patent US9206167B2, “Piperazine-substituted benzothiophenes for treatment of mental disorders” (Otsuka Pharmaceutical Co., Ltd., priority 2005, dated 2015).

Amino acid sequences for entries named in this document (tags omitted).
UniProt P31652, whole entry: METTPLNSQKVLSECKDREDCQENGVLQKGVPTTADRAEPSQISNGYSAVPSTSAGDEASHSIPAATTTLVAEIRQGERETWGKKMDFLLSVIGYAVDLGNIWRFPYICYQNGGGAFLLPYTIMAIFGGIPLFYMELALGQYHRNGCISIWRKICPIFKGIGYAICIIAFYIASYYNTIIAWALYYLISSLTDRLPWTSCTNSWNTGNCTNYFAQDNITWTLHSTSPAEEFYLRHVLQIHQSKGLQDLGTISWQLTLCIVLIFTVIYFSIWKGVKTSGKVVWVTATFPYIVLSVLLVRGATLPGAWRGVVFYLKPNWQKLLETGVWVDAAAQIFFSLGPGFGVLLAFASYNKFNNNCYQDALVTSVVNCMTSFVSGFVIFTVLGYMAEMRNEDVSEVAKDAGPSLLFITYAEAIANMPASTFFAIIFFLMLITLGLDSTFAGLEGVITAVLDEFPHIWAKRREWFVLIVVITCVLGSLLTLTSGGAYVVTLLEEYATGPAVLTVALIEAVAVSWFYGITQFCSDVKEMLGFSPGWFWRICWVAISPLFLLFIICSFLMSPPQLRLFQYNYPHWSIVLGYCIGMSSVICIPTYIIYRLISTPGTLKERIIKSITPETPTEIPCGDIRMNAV

Target: Serotonin (5-HT) uptake (Rattus norvegicus (Rat), UniProt P31652)
Test: Serotonin (5-HT) uptake inhibitory activity by rat brain synaptosome
Type: biochemical
Conditions: test compound 300 nM, rat frontal cortex synaptosome

CC1CN(CCCOc2ccc3c(c2)NC(=O)CC3)CCN1c1cccc2sccc12 (stereo not drawn)
Serotonin uptake inhibitory ratio (%) (300 nM): 73.0%

CC1CN(c2cccc3sccc23)CCN1CCCCOc1ccc2c(c1)NC(=O)CC2 (stereo not drawn)
Serotonin uptake inhibitory ratio (%) (300 nM) (tested form: dihydrochloride): 95.7%

CC1CN(c2cccc3sccc23)CCN1CCCCOc1ccc2ccc(=O)[nH]c2c1 (stereo not drawn)
Serotonin uptake inhibitory ratio (%) (300 nM) (tested form: hydrochloride): 96.3%
